Experimental data as given in article PMC9858421 (Journal of Enzyme Inhibition and Medicinal Chemistry, 2023).

Chains of the proteins cited; added tags and fusions are not shown.
UniProt P21796, whole entry: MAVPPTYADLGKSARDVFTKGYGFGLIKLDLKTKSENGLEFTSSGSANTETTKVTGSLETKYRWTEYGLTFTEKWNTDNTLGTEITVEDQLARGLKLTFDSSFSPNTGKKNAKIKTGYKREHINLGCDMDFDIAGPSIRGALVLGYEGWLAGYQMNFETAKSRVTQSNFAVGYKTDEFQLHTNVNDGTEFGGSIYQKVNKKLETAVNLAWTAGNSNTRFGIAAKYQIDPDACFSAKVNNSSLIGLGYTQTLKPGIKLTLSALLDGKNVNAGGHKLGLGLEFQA

What was measured:
[1] = biological target: hVDAC1 (Homo sapiens, UniProt P21796); test: NanoDSF thermal shift; assay type: binding; details: hVDAC1 in LDAO; compared to hVDAC1 alone at 0% or 5% DMSO
[2] = tested on: VDAC1; details: PLB, cited from earlier work

Row | SMILES | Tm shift in NanoDSF (direction / significance, in words) [1] | Effect(s) on activity [2] | Effect(s) on activity ([2]; photoaffinity labelling, MST)
1 | CC(=O)Oc1ccccc1C(=O)O [Aspirin] | increase the Tm | Reduces conductance Induces VDAC-HK II detachment | –
2 | CCC(C)n1ncn(-c2ccc(N3CCN(c4ccc(OCC5COC(Cn6cncn6)(c6ccc(Cl)cc6Cl)O5)cc4)CC3)cc2)c1=O (stereo not shown) [Itraconazole] | not been confirmed as VDAC1 ligands; also recorded: no significant changes in Tm | – | Reduces conductance

Entries after “also recorded” stand apart in the source; their conditions may differ. Read-outs that look alike come from different tables or passages of the source.
